Reference: ChEMBL document CHEMBL1275334, “5-Piperazinyl-3-sulfonylindazoles as potent and selective 5-hydroxytryptamine-6 antagonists” (J Med Chem, 2010)

The chains behind the UniProt entries cited, without tags or fusion partners.
UniProt P50406, whole entry: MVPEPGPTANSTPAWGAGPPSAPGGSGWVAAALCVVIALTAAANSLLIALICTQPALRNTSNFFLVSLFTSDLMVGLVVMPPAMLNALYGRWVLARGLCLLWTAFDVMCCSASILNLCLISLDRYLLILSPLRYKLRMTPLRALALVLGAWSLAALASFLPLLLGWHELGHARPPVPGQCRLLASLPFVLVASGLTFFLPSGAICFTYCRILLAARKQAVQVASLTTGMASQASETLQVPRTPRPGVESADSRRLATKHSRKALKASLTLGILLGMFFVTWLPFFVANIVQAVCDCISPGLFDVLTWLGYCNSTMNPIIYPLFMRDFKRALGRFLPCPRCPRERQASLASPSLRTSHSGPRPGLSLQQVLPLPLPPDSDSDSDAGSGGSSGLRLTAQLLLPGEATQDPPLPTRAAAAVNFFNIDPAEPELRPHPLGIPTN

Biological target: 5-hydroxytryptamine receptor 6 (Homo sapiens, UniProt P50406)
Test: Antagonist activity at human cloned 5HT6 receptor expressed in human HeLa cells by cyclase assay relative to control
Format: functional, cell-based

In the case of `CCCn1nc(S(=O)(=O)c2cccc3ccccc23)c2cc(N3CCNCC3)ccc21`, the Imax is reported as 99%.
